Laboratory results taken from PubChem BioAssay AID624258 (Broad Institute, 2012).

System: S. cerevisiae SKN7-toxicity growth rescue, plate reader
Test: SKN7 mediated toxicity in Saccharomyces cerevisiae, growth rescue counterscreen, dose confirmation (AID 624258);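 further: growth read after three days of incubation at 30 °C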

CC(=O)OC1C(=O)OCC23CCC4(C)OC4C2OC2CC(OC(=O)C=CC=CC(=O)OCCC1C)C3(C)C21CO1 (stereo unspecified)
AC40: 7.24 µM
